Several values for one entry are separate records, joined by “and”; a condition that tells them apart may be missing. Equal entries are not always repeated. Only a part is listed here, and it is no random draw. Activity calls are given as the source filed them. Calls come from the whole dose curve; as a rule, active = well fitted curve in either direction with a large enough effect; inconclusive = small, poorly fitted or top-dose-only effect; inactive = flat fitted curve, though single readings scatter.

Among the data in PubChem BioAssay AID1479 (National Center for Advancing Translational Sciences (NCATS), 2009) are fluorescence change, negative = quenching values, retold here.

The experiment in a line: Total Fluorescence Counterscreen for Inhibitors of the Interaction of Thyroid Hormone Receptor and Steroid Receptor Coregulator 2. Conditions: TRb/SRC2 Texas Red total fluorescence interference. For orientation: The purpose of a counterscreen is to sort out artefacts and off-target activity.
% is set by controls: 0 for no effect and ±100 for the full control effect.

With `O=[N+]([O-])C(Cl)(Cl)Cl`, the fluorescence change, negative = quenching (at 106 µM (top of the series)) was inactive: 0.761% and the fluorescence change, negative = quenching (at 201 µM (top of the series)) is inactive: 0.0105%.

As to `CN(CCCl)CCCl`, the fluorescence change, negative = quenching (at 106 µM (top of the series)) is inactive: -2.44% and inactive: -0.769%.
